Data on three molecules can be found in article PMC8342319, “Predicting blood-to-plasma concentration ratios of drugs from chemical structures and volumes of distribution in humans” (Molecular Diversity, 2021).

Series [1] can be described thus: Measurement of Rb (blood-to-plasma concentration ratio) in spiked human blood, LC-MS/MS. The series is classed as in vitro ADME. The note with it: heparinized human whole blood, footnote a: Rb is our experimental data, read-out: Rb_Human (blood-to-plasma concentration ratio).
For series [2] the following is noted: human; median if multiple values were reported; ref numbers in Table S1; cited from earlier work.

The structures appear in SMILES notation.

As to `CC(C)NCC(O)COc1ccc(COCCOC(C)C)cc1` (stereo not drawn) [Bisoprolol], the blood plasma ratio at 30 min, 5 µM in series [1] came to 0.95.
`CCC1=C(C)CN(C(=O)NCCc2ccc(S(=O)(=O)NC(=O)N[C@H]3CC[C@H](C)CC3)cc2)C1=O` [Glimepiride]: the “Rb_Human (blood-to-plasma concentration ratio)” value in series [2] is given as 0.56.
As to `CC#CCC(C)[C@H](O)/C=C/[C@@H]1[C@H]2C/C(=C/CCCC(=O)O)C[C@H]2C[C@H]1O` (stereo partly drawn) [Iloprost], in series [1], the blood plasma ratio at 30 min, 5 µM stood at 0.69.
